Experimental data taken from ChEMBL document CHEMBL1140423, “(6,7-Dimethoxy-2,4-dihydroindeno[1,2-c]pyrazol-3-yl)phenylamines: platelet-derived growth factor receptor tyrosine kinase inhibitors with broad antiproliferative activity against tumor cells” (J Med Chem, 2005).

Key:
Format in all cases: functional, cell-based
[1] = system: PC-3; experiment: Antiproliferative activity against human prostate tumor cell line PC3
[2] = system: HUVEC; experiment: Antiproliferative activity against LSGS stimulated HUVEC; conditions: Homo sapiens
[3] = system: LoVo; experiment: Antiproliferative activity against human colon tumor cell line LoVo
[4] = system: T47D; experiment: Antiproliferative activity against human breast tumor cell line T47D
[5] = system: A-375; experiment: Antiproliferative activity against human melanoma tumor cell line A375
[6] = system: ASPC1; experiment: Antiproliferative activity against human pancreatic tumor cell line AsPC1
[7] = system: NCI-H460; experiment: Antiproliferative activity against human lung tumor cell line H460

Row | Structure (SMILES) | IC50 [1] [µM] | IC50 [2] [µM] | IC50 [3] [µM] | IC50 [4] [µM] | IC50 [5] [µM] | IC50 [6] [µM] | IC50 [7] [µM]
1 | COc1cccc(Nc2[nH]nc3c2Cc2cc(OC)c(OC)cc2-3)c1 | 0.01 |  |  |  |  |  | 
2 | COc1cc2c(cc1OC)-c1n[nH]c(Nc3cccc(Cl)c3)c1C2 | 0.048 | 1.73 | 0.012 | 0.03 | 1.58 | 0.427 | 
3 | COc1cc2c(cc1OC)-c1n[nH]c(Nc3cccc(C)c3)c1C2 | 0.012 |  |  |  |  |  | 
4 | COc1ccc2c(c1)-c1n[nH]c(Nc3ccccc3)c1C2 |  | 0.015 | 10.5 |  |  |  | 9.95
